These results are taken from PubChem BioAssay AID892 (National Center for Advancing Translational Sciences (NCATS), 2007).

Sequences of proteins named here, by UniProt entry; tags and fusion partners are left off.
UniProt P38398, whole entry: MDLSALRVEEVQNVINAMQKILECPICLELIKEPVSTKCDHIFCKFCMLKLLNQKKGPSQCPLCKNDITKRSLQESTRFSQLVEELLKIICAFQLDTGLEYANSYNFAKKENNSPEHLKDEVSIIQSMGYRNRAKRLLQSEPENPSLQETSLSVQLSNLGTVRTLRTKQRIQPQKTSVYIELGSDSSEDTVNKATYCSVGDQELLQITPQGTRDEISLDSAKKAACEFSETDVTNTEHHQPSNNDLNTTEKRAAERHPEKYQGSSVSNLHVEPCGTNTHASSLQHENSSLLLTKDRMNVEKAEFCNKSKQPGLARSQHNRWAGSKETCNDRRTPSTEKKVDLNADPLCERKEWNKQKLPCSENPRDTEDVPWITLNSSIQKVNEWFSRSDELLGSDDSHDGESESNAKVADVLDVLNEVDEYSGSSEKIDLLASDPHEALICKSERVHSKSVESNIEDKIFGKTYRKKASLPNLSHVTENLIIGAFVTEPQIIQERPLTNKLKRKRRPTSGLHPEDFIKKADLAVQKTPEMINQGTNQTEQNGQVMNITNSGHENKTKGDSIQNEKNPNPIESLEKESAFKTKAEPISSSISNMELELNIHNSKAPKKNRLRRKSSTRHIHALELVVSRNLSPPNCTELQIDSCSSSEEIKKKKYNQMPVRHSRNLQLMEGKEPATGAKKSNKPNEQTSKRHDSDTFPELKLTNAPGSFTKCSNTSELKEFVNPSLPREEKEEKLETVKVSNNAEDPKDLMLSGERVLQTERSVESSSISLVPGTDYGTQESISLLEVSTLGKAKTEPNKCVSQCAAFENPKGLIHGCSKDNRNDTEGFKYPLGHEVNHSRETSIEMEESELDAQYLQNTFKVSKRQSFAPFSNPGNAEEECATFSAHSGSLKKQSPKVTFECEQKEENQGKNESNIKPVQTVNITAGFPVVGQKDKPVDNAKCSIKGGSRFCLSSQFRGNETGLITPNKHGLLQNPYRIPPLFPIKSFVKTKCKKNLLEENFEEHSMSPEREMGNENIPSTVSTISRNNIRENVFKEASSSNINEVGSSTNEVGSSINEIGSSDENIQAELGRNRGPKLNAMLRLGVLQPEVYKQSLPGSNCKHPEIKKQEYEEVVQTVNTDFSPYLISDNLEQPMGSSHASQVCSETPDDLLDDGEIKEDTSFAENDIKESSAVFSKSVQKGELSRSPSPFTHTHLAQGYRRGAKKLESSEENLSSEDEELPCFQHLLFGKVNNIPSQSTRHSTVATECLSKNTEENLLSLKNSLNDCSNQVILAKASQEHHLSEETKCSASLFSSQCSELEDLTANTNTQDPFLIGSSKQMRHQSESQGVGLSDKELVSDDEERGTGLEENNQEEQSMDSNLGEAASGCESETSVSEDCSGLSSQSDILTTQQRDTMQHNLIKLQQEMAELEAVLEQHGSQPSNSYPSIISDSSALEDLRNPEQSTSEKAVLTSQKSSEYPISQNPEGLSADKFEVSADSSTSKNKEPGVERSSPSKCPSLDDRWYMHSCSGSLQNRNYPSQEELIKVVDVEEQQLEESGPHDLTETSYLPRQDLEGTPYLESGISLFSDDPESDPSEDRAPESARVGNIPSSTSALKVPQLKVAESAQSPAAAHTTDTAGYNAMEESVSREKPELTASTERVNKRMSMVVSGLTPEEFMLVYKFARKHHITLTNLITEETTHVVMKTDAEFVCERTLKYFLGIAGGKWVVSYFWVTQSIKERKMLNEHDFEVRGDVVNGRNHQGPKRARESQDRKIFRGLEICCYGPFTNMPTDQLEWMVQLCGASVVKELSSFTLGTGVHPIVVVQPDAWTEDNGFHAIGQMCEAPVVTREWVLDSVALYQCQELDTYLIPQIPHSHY

The entries are a selection whose mix differs from that of the whole data set. Some tests of the compounds listed are not included; inactive here does not mean inactive elsewhere. Activity calls are given as the source filed them. Calls follow the shape of the dose curve; as a rule, active = well fitted inhibition curve with a large enough effect; inconclusive = small, poorly fitted or top-dose-only effect; inactive = no such curve, though single readings can be large or run the other way.
% is scaled to controls: 0 for no effect and ±100 for the full control effect.

The target of this experiment is Breast cancer type 1 susceptibility protein (Homo sapiens) (UniProt P38398). The experiment can be described thus: qHTS Assay for Inhibitors of BRCT-Phosphoprotein Interaction (Red Fluorophore). As to conditions: BRCT-phosphopeptide binding, red fluorescence polarization; at 15.4 µM (top of the series) unless noted. The protocol: NIH Molecular Libraries Screening Centers Network [MLSCN]
NIH Chemical Genomics Center [NCGC]
PI Name: Natarajan, Amarnath; University of Texas
A complex of BRCT (C-terminal portion of BRCA1, MW ~35 kDa, His-tagged) and fluorescently labeled pBACH1 phosphorylated 10 aa peptide fragment of BACH1, a helicase implicated in DNA repair, is incubated with library members. Inhibitors of BRCT-pBACH1 binding are detected by a decrease in the fluorescence polarization (FP) of the fluorophore. In order to minimize the effect of fluorescence artifacts and to increase the overall robustness of the screen, the compound library members were incubated in separate reactions with rhodamine-labeled probe-protein complexes. Protein and labeled probes were supplied by Dr. Amarnath Natarajan, Department of Pharmacology and Toxicology, University of Texas Medical Branch Galveston, TX.
Assay Buffer: 16mM Na2HPO4, 4 mM NaH2PO4, 150 mM NaCl, 1 mM EDTA, 1 mM DTT, 0.02% NaN3, and 0.01% Tween 20 at pH 7.3.
Assay Controls: 100 nM TAMRA labeled decapeptide dispensed into columns 3 and 4 to generate negative control (full inhibition of
binding, -100 % activity). 100 nM labeled decapeptide/100 nM protein in columns 1, 2, 5 - 48. Titration of unlabeled decapeptide control (from 10 mM, then 1:2 dilution in duplicate) pin-transferred to column 2, rows 1 to 16. Column 1 is neutral.
Three uL of reagents were dispensed to 1536-well Greiner black solid-bottom plates. Compounds and controls (23 nL) were transferred via Kalypsys PinTool. The plates were incubated for 12 min at room temperature, and then read on ViewLux (Perkin-Elmer) High-throughput CCD imager using BODIPY for the rhodamine-labeled decapeptide probe polarization filter sets. During dispense, reagent bottles were kept submerged into 4 deg C water bath and all liquid lines were covered with aluminum foil to minimize probe and protein degradation. All screening operations were performed on a Kalypsys robotic system (Kalypsys, Inc., San Diego, CA) containing one RX-130 and two RX-90 anthropomorphic robotic arms. The timing and order of assay plates passing through the screening system were adjusted such that each compound library plate was assayed against the fluorescein- and rhodamine-labeled assay systems at immediately adjacent time points.
A general note: In qHTS, concentration-response curves come from the screen itself.
As for `CN(C)c1cccc(C(=O)NCC2(N(C)C)CCCCC2)c1`, the activity change, negative = inhibition was inactive: 0.128% [at 76.9 µM].
Under `C=C(C)C#C[C@@](O)(C(=O)OC1CCN(C)CC1)c1ccccc1` stands inactive: -0.362%; under `CN1CC[C@H](OC(=O)[C@](O)(c2ccccc2)C2CCCC2)C1`, inactive: -0.224%.
The value for `O=C(OC1CN2CCC1CC2)C(CO)(c1ccccc1)c1ccccc1` (stereo not given) was inactive: 0.983% [at 76.9 µM].
`CN1CCC[C@H](OC(=O)[C@](O)(c2ccccc2)C2CCCC2)C1`: the activity change, negative = inhibition was inactive: 1.02%.
